In ChEMBL document CHEMBL5131394, “Structure-activity and mechanistic studies of non-peptidic inhibitors of the PLK1 polo box domain identified through REPLACE” (Eur J Med Chem, 2022):

Assay: Antiproliferative activity against human p53HCT116 cells assessed as cell viability measured after 72 hrs by MTT assay
Assay type: functional, cell-based
Details: p53HCT116, 72 h

## CCCCCCCCc1ccc(C(=O)Nc2cccc(F)c2C(=O)O)cc1
  IC50: 12.4 µM
